1 compound from US20250195513A1, “DEGRADATION OF IRAK4 BY CONJUGATION OF IRAK4 INHIBITORS WITH E3 LIGASE LIGAND AND METHODS OF USE” (BeiGene, Ltd., priority 2022, published 2025) can be followed below.

Chains of the proteins cited; added tags and fusions are not shown.
UniProt Q9NWZ3, whole entry: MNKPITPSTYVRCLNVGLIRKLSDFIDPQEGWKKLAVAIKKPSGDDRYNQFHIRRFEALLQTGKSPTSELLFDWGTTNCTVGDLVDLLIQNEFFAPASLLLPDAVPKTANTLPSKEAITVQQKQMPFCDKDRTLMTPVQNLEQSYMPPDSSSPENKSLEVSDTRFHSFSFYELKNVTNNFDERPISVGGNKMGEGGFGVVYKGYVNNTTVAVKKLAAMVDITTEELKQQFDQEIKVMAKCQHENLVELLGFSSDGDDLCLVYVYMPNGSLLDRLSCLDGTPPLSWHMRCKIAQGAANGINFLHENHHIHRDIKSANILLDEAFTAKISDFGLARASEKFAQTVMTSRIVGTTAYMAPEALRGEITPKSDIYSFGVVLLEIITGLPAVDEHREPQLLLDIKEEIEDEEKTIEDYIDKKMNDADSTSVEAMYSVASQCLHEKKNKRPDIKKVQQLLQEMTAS

What is called DC50 is the concentration giving 50% degradation.

The target in this assay is IRAK4 (Homo sapiens, UniProt Q9NWZ3). Briefly: IRAK4 Degradation Assay (Karpas299, HTRF/TR-FRET). The note with it: Karpas-299 cells, 24 h treatment. As to the method: IRAK4 degradation was measured using a TR-FRET-based method (Degorce, François, et al. Current chemical genomics. 2009, 3: 22). Karpas299 maintained in RPMI 1640 medium (Thermo Scientific) supplemented with 20% fetal bovine serum (FBS, Thermo Scientific), 100 units/mL penicillin and 0.1 mg/mL streptomycin (Thermo Scientific) were seeded into 96-well plates at the density of 0.2 million cells per well and then treated with a series dilution of compounds. After 24 hours or 5 hours treatment, cells were pelleted via centrifugation and 40 μL lysis buffer (Cisbio) was added to each well after removal of the supernatant. Plates were then incubated at room temperature with shaking for 30 minutes. […] IRAK4 level was quantitated using the HTRF kit as described by the manufacturer manual (Cisbio). FRET signals were measured using a PHERAstar FSX reader (BMG Labtech).
After treatment, add HTRF lysis buffer to each well; seal the plate and incubate 1 hour at room temperature on a plate shaker; Once the cells are lysed, 16 μL of cell lysate are transferred to a PE 384-well HTRF detection plate; 4 μL of pre-mixed HTRF antibodies are added to each well; Cover the plate with a plate sealer, spin 1000 rpm for 1 min, Incubate overnight at room temperature; Read on BMG PheraStar with HTRF protocol (337 nm-665 nm-620 nm). […]

For `COc1cc2nn([C@H]3CC[C@H](NC(=O)[C@H]4CC[C@H](Oc5cc(F)c(C6CCC(=O)NC6=O)c(F)c5)CC4)CC3)cc2cc1NC(=O)c1cccc(C(F)(F)F)n1` (some centres unmarked), the “IRAK4 in Karpas-299 (24 h) Dmax (%)” value (maximum percentage of degradation) is recorded as 97%. For the same compound, the 50% degradation concentration (DC50) (read-out: IRAK4 in Karpas-299 (24 h) DC50) came out at 17 nM.
